Values quoted from earlier work as cited in publication PMC3981547.
pKd: −log10 of the molar value.

The chains behind the UniProt entries cited, without tags or fusion partners. Residues count along the entry.
UniProt P01589, 22-240, chain 1 of 2: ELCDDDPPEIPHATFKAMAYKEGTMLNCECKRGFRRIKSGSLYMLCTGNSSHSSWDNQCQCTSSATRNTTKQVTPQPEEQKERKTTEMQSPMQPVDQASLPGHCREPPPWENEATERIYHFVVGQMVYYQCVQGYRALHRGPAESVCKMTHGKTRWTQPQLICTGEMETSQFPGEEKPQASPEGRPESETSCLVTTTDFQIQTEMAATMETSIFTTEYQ
UniProt P60568, 21-153: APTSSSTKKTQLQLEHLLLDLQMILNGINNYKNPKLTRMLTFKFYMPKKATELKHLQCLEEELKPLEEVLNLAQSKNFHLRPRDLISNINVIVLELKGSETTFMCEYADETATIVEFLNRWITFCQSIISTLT

Tests used:
[1] = target: IL-2Rα/IL-2Rβ (Homo sapiens) (UniProt P01589)
[2] = target: IL-2Rα/IL-2Rβ/γc (Homo sapiens) (UniProt P01589)

pKd [1]: 10.52
pKd [2]: 11.00
Substance: IL-2 (from UniProt P60568)
